By UniProt entry, the sequences of proteins in these tests, tags left out.
UniProt P34972, whole entry: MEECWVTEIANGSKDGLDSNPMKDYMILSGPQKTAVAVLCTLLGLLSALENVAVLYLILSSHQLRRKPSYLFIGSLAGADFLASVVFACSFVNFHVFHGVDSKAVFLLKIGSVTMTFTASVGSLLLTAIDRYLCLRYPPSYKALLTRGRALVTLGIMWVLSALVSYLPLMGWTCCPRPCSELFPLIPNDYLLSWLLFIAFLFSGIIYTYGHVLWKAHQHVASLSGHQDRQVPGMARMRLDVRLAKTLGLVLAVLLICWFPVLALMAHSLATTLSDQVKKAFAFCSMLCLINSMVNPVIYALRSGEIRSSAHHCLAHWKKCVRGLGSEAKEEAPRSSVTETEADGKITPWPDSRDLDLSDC

pEC50: −log10 of the molar value.
What follows are molecules tested against human CB2 receptor (hCB2) (Homo sapiens, UniProt P34972) (assay: cell-based).
With `CNC(=O)[C@@H](NC(=O)c1nc(-c2cc(F)c(F)cc2F)n2c1CN(CC1CC1)CCC2)C(C)(C)C` [Compound 713, (S)-8-(cyclopropylmethyl)-N-(3,3-dimethyl-1-(methylamino)-1-oxobutan-2-yl)-3-(2,4,5-trifluorophenyl)-6,7,8,9-tetrahydro-5H-imidazo[1,5-a][1,4]diazepine-1-carboxamide] the pEC50 was 7.00 to 8.00. In the case of `CN1CCCn2c(-c3cc(Cl)c(F)cc3F)nc(C(=O)N3CC[C@H](O)C3)c2C1` [Compound 910, (S)-(3-(5-chloro-2,4-difluorophenyl)-8-methyl-6,7,8,9-tetrahydro-5H-imidazo[1,5-a][1,4]diazepin-1-yl)(3-hydroxypyrrolidin-1-yl)methanone], the pEC50 was < 5.00. In the case of `CN1CCCn2c(-c3cc(Cl)c(F)cc3F)nc(C(=O)N3CCC(F)(F)C3)c2C1` [Compound 824, (3-(5-chloro-2,4-difluorophenyl)-8-methyl-6,7,8,9-tetrahydro-5H-imidazo[1,5-a][1,4]diazepin-1-yl)(3,3-difluoropyrrolidin-1-yl)methanone], the pEC50 was < 5.00. With `CN1CCCn2c(-c3cc(C(F)(F)F)ccc3F)nc(C(=O)N[C@H](C(=O)NCCF)C(C)(C)C)c2C1` [Compound 810, (S)-3-(2-fluoro-5-(trifluoromethyl)phenyl)-N-(1-(2-fluoroethylamino)-3,3-dimethyl-1-oxobutan-2-yl)-8-methyl-6,7,8,9-tetrahydro-5H-imidazo[1,5-a][1,4]diazepine-1-carboxamide] the pEC50 was < 5.00. With `CNC(=O)[C@@H](NC(=O)c1nc(-c2cnn(-c3ccccc3)c2C)n2c1CN(C)CCC2)C(C)(C)C` [Compound 709, (S)-N-(3,3-dimethyl-1-(methylamino)-1-oxobutan-2-yl)-8-methyl-3-(5-methyl-1-phenyl-1H-pyrazol-4-yl)-6,7,8,9-tetrahydro-5H-imidazo[1,5-a][1,4]diazepine-1-carboxamide] the pEC50 was < 5.00. In the case of `CNC(=O)[C@@H](NC(=O)c1nc(-c2cccnc2C)n2c1CN(C)CCC2)C(C)(C)C` [Compound 640, (S)-N-(3,3-dimethyl-1-(methylamino)-1-oxobutan-2-yl)-8-methyl-3-(2-methylpyridin-3-yl)-6,7,8,9-tetrahydro-5H-imidazo[1,5-a][1,4]diazepine-1-carboxamide], the pEC50 was < 5.00. In the case of `CNC(=O)[C@@H](NC(=O)c1nc(-c2cccnc2OC(C)C)n2c1CN(C)CCC2)C(C)(C)C` [Compound 641, (S)-N-(3,3-dimethyl-1-(methylamino)-1-oxobutan-2-yl)-3-(2-isopropoxypyridin-3-yl)-8-methyl-6,7,8,9-tetrahydro-5H-imidazo[1,5-a][1,4]diazepine-1-carboxamide], the pEC50 was < 5.00. With `CNC(=O)[C@@H]1CCN(C(=O)c2nc(-c3cc(F)c(F)cc3F)n3c2CN(C)CCC3)C1` [Compound 758, (R)-N-methyl-1-(8-methyl-3-(2,4,5-trifluorophenyl)-6,7,8,9-tetrahydro-5H-imidazo[1,5-a][1,4]diazepine-1-carbonyl)pyrrolidine-3-carboxamide] the pEC50 was < 5.00. For `CNC(=O)[C@H]1CCN(C(=O)c2nc(-c3cc(Cl)c(F)cc3F)n3c2CN(C)CCC3)C1` [Compound 809, (S)-1-(3-(5-chloro-2,4-difluorophenyl)-8-methyl-6,7,8,9-tetrahydro-5H-imidazo[1,5-a][1,4]diazepine-1-carbonyl)-N-methylpyrrolidine-3-carboxamide], the pEC50 was < 5.00. In the case of `CN1CCCn2c(-c3cc(Cl)ccc3F)nc(C(=O)N[C@H](CN)C(C)(C)C)c2C1` [Compound 768, (S)-N-(1-amino-3,3-dimethylbutan-2-yl)-3-(5-chloro-2-fluorophenyl)-8-methyl-6,7,8,9-tetrahydro-5H-imidazol[1,5-a][1,4]diazepine-1-carboxamide], the pEC50 was < 5.00. For `CNC(=O)[C@@H](NC(=O)c1nc(-c2cnn(S(=O)(=O)c3ccccc3)c2)n2c1CN(C)CCC2)C(C)(C)C` [Compound 776, (S)-N-(3,3-dimethyl-1-(methylamino)-1-oxobutan-2-yl)-8-methyl-3-(1-(phenylsulfonyl)-1H-pyrazol-4-yl)-6,7,8,9-tetrahydro-5H-imidazo[1,5-a][1,4]diazepine-1-carboxamide], the pEC50 was < 5.00. For `CNC(=O)[C@@H](NC(=O)c1nc(-c2cc(F)c(F)cc2F)n2c1CN(c1cccc(Cl)n1)CCC2)C(C)(C)C` [Compound 717, (S)-8-(6-chloropyridin-2-yl)-N-(3,3-dimethyl-1-(methylamino)-1-oxobutan-2-yl)-3-(2,4,5-trifluorophenyl)-6,7,8,9-tetrahydro-5H-imidazo[1,5-a][1,4]diazepine-1-carboxamide], the pEC50 was < 5.00. With `CNC(=O)[C@@H](NC(=O)c1nc(-c2ccc3c(c2)OCCO3)n2c1CN(C)CCC2)C(C)(C)C` [Compound 326, (S)-3-(2,3-dihydrobenzo[b][1,4]dioxin-6-yl)-N-(3,3-dimethyl-1-(methylamino)-1-oxobutan-2-yl)-8-methyl-6,7,8,9-tetrahydro-5H-imidazo[1,5-a][1,4]diazepine-1-carboxamide] the pEC50 was < 5.00. `CNC(=O)[C@@H]1CCN(C(=O)c2nc(-c3cc(Cl)c(F)cc3F)n3c2CN(C)CCC3)C1` [Compound 808, (R)-1-(3-(5-chloro-2,4-difluorophenyl)-8-methyl-6,7,8,9-tetrahydro-5H-imidazo[1,5-a][1,4]diazepine-1-carbonyl)-N-methylpyrrolidine-3-carboxamide] was tested, and the pEC50 was < 5.00. `CN1CCCn2c(-c3cc(F)c(F)cc3F)nc(C(=O)N3CCC4(CCN(C)C4=O)CC3)c2C1` [Compound 788, 2-methyl-8-(8-methyl-3-(2,4,5-trifluorophenyl)-6,7,8,9-tetrahydro-5H-imidazo[1,5-a][1,4]diazepine-1-carbonyl)-2,8-diazaspiro[4.5]decan-1-one] was tested, and the pEC50 was < 5.00. In the case of `CNC(=O)[C@@H](NC(=O)c1nc(C2CCN(S(=O)(=O)C(C)C)CC2)n2c1CN(C)CCC2)C(C)(C)C` [Compound 775, (S)-N-(3,3-dimethyl-1-(methylamino)-1-oxobutan-2-yl)-3-(1-(isopropylsulfonyl)piperidin-4-yl)-8-methyl-6,7,8,9-tetrahydro-5H-imidazo[1,5-a][1,4]diazepine-1-carboxamide], the pEC50 was < 5.00. With `CNC(=O)[C@@H](NC(=O)c1nc(-c2cc(F)c(F)cc2F)n2c1CN(C1CC1)CCC2)C(C)(C)C` [Compound 902, (S)-8-cyclopropyl-N-(3,3-dimethyl-1-(methylamino)-1-oxobutan-2-yl)-3-(2,4,5-trifluorophenyl)-6,7,8,9-tetrahydro-5H-imidazo[1,5-a][1,4]diazepine-1-carboxamide] the pEC50 was < 5.00. With `CNC(=O)[C@@H](NC(=O)c1nc(-c2cc(F)c(F)cc2F)n2c1CN(c1cncc(Cl)n1)CCC2)C(C)(C)C` [Compound 718, (S)-8-(6-chloropyrazin-2-yl)-N-(3,3-dimethyl-1-(methylamino)-1-oxobutan-2-yl)-3-(2,4,5-trifluorophenyl)-6,7,8,9-tetrahydro-5H-imidazo[1,5-a][1,4]diazepine-1-carboxamide] the pEC50 was < 5.00. `CN1CCCn2c(-c3cc(Cl)ccc3F)nc(C(=O)N[C@H](C(=O)N[C@H]3CN4CCC3CC4)C(C)(C)C)c2C1` [Compound 744, 3-(5-chloro-2-fluorophenyl)-N-((S)-3,3-dimethyl-1-oxo-1-((R)-quinuclidin-3-ylamino)butan-2-yl)-8-methyl-6,7,8,9-tetrahydro-5H-imidazo[1,5-a][1,4]diazepine-1-carboxamide] was tested, and the pEC50 was < 5.00.

Reference: US8431565B2 (priority 2007, dated 2013)
